Experimental data taken from patent US5914319A, “Antithrombotic agents” (Eli Lilly and Company, priority 1995, dated 1999).

Assay: Index of bioavailability (% Relative Activity from plasma TT time course)
Assay type: in vivo
Settings: dose-adjusted AUC of plasma TT time course, p.o. versus i.v. bolus

Row | Substance | % oral/i.v. activity (Rat) [%]
1 | EtSO2 -D-Phe-Pro-p-NHCH2 --C6 H4 C(=NH)NH2.HCl [Example 23] | 12
2 | 1-Piq-Pro-p-NHCH2 C6 H4 C(NH)NH2.2HCl [Example 18] | 12
3 | D-hPro-Pro-p-NHCH2 C6 H4 C(NH)NH2.HCl [Example 17] | 15
